Data on one compound can be found in ChEMBL document CHEMBL1132981 (J Med Chem, 2000).

Amino acid sequences for entries named in this document (tags omitted). A change or cut given only in a name is not applied to a line headed by its entry.
UniProt P29275: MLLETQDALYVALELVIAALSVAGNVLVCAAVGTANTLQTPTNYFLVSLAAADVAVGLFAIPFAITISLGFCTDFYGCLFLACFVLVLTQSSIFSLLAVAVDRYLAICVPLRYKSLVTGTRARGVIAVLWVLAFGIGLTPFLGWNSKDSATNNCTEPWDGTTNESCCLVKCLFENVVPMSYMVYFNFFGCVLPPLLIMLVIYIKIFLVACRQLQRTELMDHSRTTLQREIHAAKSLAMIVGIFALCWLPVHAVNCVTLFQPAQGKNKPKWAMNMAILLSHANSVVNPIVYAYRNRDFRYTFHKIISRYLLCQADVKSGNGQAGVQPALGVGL
UniProt P0DMS8, whole entry, looked up: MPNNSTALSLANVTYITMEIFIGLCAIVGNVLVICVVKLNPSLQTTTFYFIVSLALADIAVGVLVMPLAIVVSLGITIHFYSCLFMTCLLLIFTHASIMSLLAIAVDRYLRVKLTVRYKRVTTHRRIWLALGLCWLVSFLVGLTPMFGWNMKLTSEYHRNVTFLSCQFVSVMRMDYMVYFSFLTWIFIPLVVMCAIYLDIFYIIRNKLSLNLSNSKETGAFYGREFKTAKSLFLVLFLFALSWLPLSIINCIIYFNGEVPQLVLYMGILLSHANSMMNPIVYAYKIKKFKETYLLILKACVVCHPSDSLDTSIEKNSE
UniProt P30542, whole entry, looked up: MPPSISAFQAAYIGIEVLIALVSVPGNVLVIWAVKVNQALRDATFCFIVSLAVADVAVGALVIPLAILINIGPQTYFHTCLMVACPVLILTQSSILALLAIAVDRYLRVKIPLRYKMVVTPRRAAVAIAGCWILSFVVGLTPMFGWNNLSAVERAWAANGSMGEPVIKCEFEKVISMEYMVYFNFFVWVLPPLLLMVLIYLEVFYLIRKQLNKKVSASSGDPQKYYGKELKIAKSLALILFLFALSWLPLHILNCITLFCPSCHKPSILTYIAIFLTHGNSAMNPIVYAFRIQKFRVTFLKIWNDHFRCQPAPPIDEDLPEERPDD

The target in experiment [1] is Adenosine receptors; A2b & A3 (Homo sapiens) (UniProt P29275+P0DMS8). Briefly: Selectivity ratio of hA3 to hA2B. It counts as protein assay.
Experiment [2] addresses Adenosine receptors; A1 & A2b (Homo sapiens) (UniProt P30542+P29275). Briefly: Selectivity ratio of hA1 to hA2B. It counts as protein assay.

Consider `CCCn1c(=O)c2nc(-c3ccc(OCC(=O)NCc4ccccc4)cc3)[nH]c2n(CCC)c1=O`, for which the Ratio stood at 39 in experiment [1] and 27 in experiment [2].
